Laboratory results from ChEMBL document CHEMBL6092185, “Discovery of glycosidated glycyrrhetinic acid derivatives: Natural product-based soluble epoxide hydrolase inhibitors” (Eur J Med Chem, 2024).

Assays:
Mus musculus [1] = organism: Mus musculus; conditions: BALB/c, dose 20.0 mg/kg, route ig, time 5.0 hrs
Mus musculus [2] = organism: Mus musculus; conditions: BALB/c, dose 20.0 mg/kg, route ig, time <= 6.0 hrs

SMILES	inhibition (Mus musculus [1])	inhibition (Mus musculus [2])
CC1(C)[C@@H](O[C@@H]2OC[C@@H](O)[C@@H](O)[C@@H]2O)CC[C@]2(C)[C@H]3C(=O)C=C4[C@H]5C[C@@](C)(CNC(=O)NCC6CCOCC6)CC[C@]5(C)CC[C@@]4(C)[C@]3(C)CC[C@@H]12	Active; Relatively Slow Onset Of Action With Maximum Inhibition Reached At # Hrs	
CCC(=O)N1CCC(CNC(=O)NC[C@@]2(C)CC[C@]3(C)CC[C@]4(C)C(=CC(=O)[C@@H]5[C@@]6(C)CC[C@H](O[C@H]7O[C@H](CO)[C@@H](O)[C@H](O)[C@@H]7O)C(C)(C)[C@@H]6CC[C@]54C)[C@H]3C2)CC1		Not active; Exhibited Weak Activity
CCC(=O)N1CCC(CNC(=O)NC[C@@]2(C)CC[C@]3(C)CC[C@]4(C)C(=CC(=O)[C@@H]5[C@@]6(C)CC[C@H](O[C@H]7O[C@H](CO)[C@@H](O)[C@H](O)[C@@H]7O)C(C)(C)[C@@H]6CC[C@]54C)[C@@H]3C2)CC1		Not active; Exhibited Weak Activity
CC1(C)[C@@H](O[C@@H]2O[C@H](CO)[C@@H](O)[C@H](O)[C@@H]2O)CC[C@]2(C)[C@H]3C(=O)C=C4[C@H]5C[C@@](C)(CNC(=O)NCC6CCOCC6)CC[C@]5(C)CC[C@@]4(C)[C@]3(C)CC[C@@H]12	Active; Relatively Slow Onset Of Action With Maximum Inhibition Reached At # Hrs	
